Patent US20250205191A1, “R(-)-MDMA COMPOSITIONS AND METHODS OF TREATMENT” (EmpathBio, Inc., priority 2023, published 2025)

Sequences of proteins named here, by UniProt entry; tags and fusion partners are left off. Residues count along the entry.
UniProt P28335, 33-458: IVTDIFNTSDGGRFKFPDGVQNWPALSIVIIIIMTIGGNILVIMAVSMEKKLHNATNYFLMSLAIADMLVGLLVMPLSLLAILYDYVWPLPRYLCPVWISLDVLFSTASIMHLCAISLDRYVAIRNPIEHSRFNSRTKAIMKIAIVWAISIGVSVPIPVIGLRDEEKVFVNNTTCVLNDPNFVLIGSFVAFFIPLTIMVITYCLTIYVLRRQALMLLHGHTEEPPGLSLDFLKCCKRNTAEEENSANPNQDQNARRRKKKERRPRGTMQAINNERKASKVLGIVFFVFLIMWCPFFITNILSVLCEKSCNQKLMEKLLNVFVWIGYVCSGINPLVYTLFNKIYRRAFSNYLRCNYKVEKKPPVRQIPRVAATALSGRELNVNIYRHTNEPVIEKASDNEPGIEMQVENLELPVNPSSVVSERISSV

Key:
[1] = target: T1, human 5-HT2C (non-edited) receptor (Homo sapiens, UniProt P28335); experiment: 5-HT2C (non-edited) agonism, inositol monophosphate accumulation (HTRF), CHO-K1 recombinant cells; type: cell-based; conditions: CHO-K1, IP accumulation
T1 construct: expressed in transfected cells; host or cells: CHO-K1

[2] = target: human 5-HT2C (edited) receptor (Homo sapiens, UniProt P28335); experiment: 5-HT2C (edited) agonism, inositol monophosphate accumulation (HTRF), CHO-K1 recombinant cells; type: cell-based; conditions: CHO-K1, IP accumulation

CNC(C)Cc1ccc2c(c1)OCO2 (racemic) [Racemic MDMA, 3,4-methylenedioxymethamphetamine, reference compound]
EC50 [1]: 943 nM | EC50 [2]: 881 nM

CN[C@H](C)Cc1ccc2c(c1)OCO2 [R(−)-MDMA, R(−)-3,4-methylenedioxymethamphetamine]
EC50 [1]: 376 nM | EC50 [2]: 494 nM
